Experimental data as given in patent US20040219217A1, “Conjugates of polysaccharide polymers of natural origin” (priority 2001, published 2004).

Key:
[1] = normal environmental conditions
[2] = household detergents, gas chromatographic determination of benzyl benzoate
[3] = dust of living environments equipped with the fabrics

Row | Substance | (2) Percentage of acaricide released after exposure to air for 6 months (determined through measurement of the residual acaricide still present on the fibre) [1] [%] | (1) Percentage of acaricide released into the washing liquor after washing with surfactants [2] [%] | Quantity of acaricide per 100 g dust [3]
1 | cotton-CH2—NH-lys-NH—CO-PABA-benzyl benzoate [III.B.2.1.2.] | 14.0 | 18.0 | Absent
2 | cotton-CH2—NH-polylys-(NH—CO-PABA-benzylbenzoate)n [III.B.2.2.2.] | 0 | 2.0 | Absent
3 | cotton-CH═N-lys-NH—CO-PABA-benzylbenzoate [III.B.2.1.1.] | 42.0 | 60.0 | Significant traces
4 | cotton-CH═N-polylys-(NH—CO-PABA-benzylbenzoate)n [III.B.2.2.1.] | 22.0 | 28.0 | Traces
